Tests used:
[1] = biological target: adenovirus terminal protein-thioredoxin fusion protein (TP–Trx), bacterially expressed (adenovirus (serotype not given))
[2] = biological target: adenovirus terminal protein-thioredoxin fusion protein (TP–Trx), bacterially expressed (adenovirus (serotype not given)); experiment: AlphaScreen or HTRF; 30 nM TP–Trx (or Trx tag alone) on nickel NTA donor beads, serial dilutions of GST-tagged importins or GST control on GST acceptor beads; 0.5% BSA added, dilutions in PBS, room temperature in the dark; one-phase association fit

“Imp α/β1 heterodimer (GST-Imp α2 with GST-cleaved Imp β1) (from UniProt P52293 1-529; P70168 1-876) (complex)” was tested, and the Nf/Cf of TP–Trx–AF594 microinjected into HeLa cells incubated with ivermectin (30 µM), an Imp α/β inhibitor; 1.62 with DMSO [1] was 0.86 and the Kd [2] was 59 nM.
